Assays:
[1] = rat plasma, 37° C., 0 h (baseline)
in vitro = conditions: rat, plasma
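Further: peptides incubated in vitro in rat plasma at 37 °C up to 6 h, intact peptide quantified by LC-MS versus internal standard, expressed relative to pre-incubation baseline (100%).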

CC[C@H](C)[C@H](NC(=O)[C@H](C)NC(=O)[C@H](CCCCN)NC(=O)[C@H](CCCNC(=N)N)NC(=O)[C@H](Cc1ccccc1)NC(=O)[C@H](CCC(N)=O)NC(=O)[C@@H]1CSSC[C@H](N)C(=O)N[C@@H](CC(=O)O)C(=O)N[C@@H](C)C(=O)N[C@@H]([C@@H](C)O)C(=O)N1)C(=O)N[C@@H](CC(=O)O)C(=O)N[C@@H](CC(=O)O)C(=O)N[C@H]1CSSC[C@@H](C(=O)N[C@@H](CCSC)C(=O)N[C@@H](CCCCN)C(=O)N[C@@H](CCC(N)=O)C(=O)N[C@@H](CCCCN)C(=O)N[C@@H](CCCCN)C(=O)N[C@@H](CCCCN)C(=O)N[C@@H](CCC(=O)O)C(=O)N[C@@H](Cc2ccccc2)C(=O)N[C@@H](CCCCN)C(=O)N[C@@H](C)C(=O)NCC(N)=O)NC(=O)C(C)(C)NC(=O)[C@H](CCCCN)NC(=O)[C@H](Cc2ccccc2)NC(=O)[C@H](C(C)C)NC(=O)[C@H](CO)NC(=O)[C@H](C(C)C)NC(=O)[C@H](CO)NC(=O)[C@H]([C@@H](C)O)NC(=O)[C@H](CCC(N)=O)NC(=O)[C@H](CC(C)C)NC(=O)CNC(=O)[C@@H]2CCCN2C(=O)[C@H](C(C)C)NC(=O)[C@H](CC(N)=O)NC(=O)[C@H](CO)NC(=O)[C@H](Cc2c[nH]cn2)NC(=O)[C@H](Cc2c[nH]cn2)NC(=O)[C@H](C)NC(=O)[C@H](CCC(N)=O)NC(=O)[C@H](CCCCN)NC(=O)[C@H](CCC(N)=O)NC1=O [SEQ ID NO 197]
% Intact Peptide Remaining [1]: 100% | remaining at 0.5 h (in vitro): 95.2% | remaining at 1 h (in vitro): 98.9% | remaining at 2 h (in vitro): 91.9% | remaining at 4 h (in vitro): 89% | remaining at 6 h (in vitro): 87.5%

Source: patent publication US20210395313A1, “PEPTIDE PAC1 ANTAGONISTS” (AMGEN INC., priority 2017, published 2021)
